Laboratory results reported in ChEMBL document CHEMBL5104187, “Discovery of 2-(1-(3-Chloro-4-cyanophenyl)-1H-pyrazol-3-yl)acetamides as Potent, Selective, and Orally Available Antagonists Targeting the Androgen Receptor” (J Med Chem, 2022).

Protein sequences, listed by entry. Tags and fused reporters are not part of them.
Androgen receptor (Homo sapiens), P10275, UniProt P10275, whole entry F877L: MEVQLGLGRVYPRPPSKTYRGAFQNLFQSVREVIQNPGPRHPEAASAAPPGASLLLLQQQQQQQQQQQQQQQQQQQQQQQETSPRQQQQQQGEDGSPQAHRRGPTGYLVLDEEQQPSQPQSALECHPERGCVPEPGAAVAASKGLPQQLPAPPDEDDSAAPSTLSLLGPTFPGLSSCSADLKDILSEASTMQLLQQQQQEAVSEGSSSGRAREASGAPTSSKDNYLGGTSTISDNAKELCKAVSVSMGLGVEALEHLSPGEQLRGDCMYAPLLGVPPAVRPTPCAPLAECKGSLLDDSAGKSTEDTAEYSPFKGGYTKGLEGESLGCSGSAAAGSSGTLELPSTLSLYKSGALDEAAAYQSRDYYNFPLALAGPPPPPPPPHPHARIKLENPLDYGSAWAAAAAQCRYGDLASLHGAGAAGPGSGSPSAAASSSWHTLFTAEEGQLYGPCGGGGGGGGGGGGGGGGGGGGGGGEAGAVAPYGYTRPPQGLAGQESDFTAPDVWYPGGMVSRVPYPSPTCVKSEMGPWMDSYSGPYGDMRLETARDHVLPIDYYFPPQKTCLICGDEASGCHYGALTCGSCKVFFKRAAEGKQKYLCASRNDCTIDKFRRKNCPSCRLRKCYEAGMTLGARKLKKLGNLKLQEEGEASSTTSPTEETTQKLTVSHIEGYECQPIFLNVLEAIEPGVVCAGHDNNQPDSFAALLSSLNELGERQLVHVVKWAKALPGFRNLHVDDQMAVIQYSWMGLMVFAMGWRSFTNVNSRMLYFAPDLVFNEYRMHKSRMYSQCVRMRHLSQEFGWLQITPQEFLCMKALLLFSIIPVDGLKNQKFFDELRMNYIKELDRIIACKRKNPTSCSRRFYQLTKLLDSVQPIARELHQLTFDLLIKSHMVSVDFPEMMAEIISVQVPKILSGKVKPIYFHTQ

System: Androgen receptor (Homo sapiens), P10275 [F877L]
Experiment: Potency index, ratio of Darolutamide IC50 to test compound IC50 for inhibition androgen receptor F877L mutant (unknown origin) transcriptional activity

N#Cc1ccc(-n2ccc(CC(=O)Nc3ccc(F)nc3)n2)cc1Cl
Ratio IC50: 20
